Source: publication PMC7835894, “Revealing the Potential Application of EC-Synthetic Retinoid Analogues in Anticancer Therapy” (Molecules, 2021)

Legend:
Assay type in all cases: cell-based, human
[1] = test system: WI-38; experiment: MTT antiproliferation/cytotoxicity assay; conditions: SI = IC50 (WI-38)/IC50 (cell line)
Protocol: The antiproliferation and cytotoxicity were assessed using 3-(4,5-dimethylthiazol-2-yl)-2,5-diphenyltetrazolium bromide (MTT, Serva) colorimetric assay. To investigate the antiproliferation, all cell lines were seeded at a density of 20,000 cells per well in 96-well plates and allowed to adhere overnight. The attached cells were treated with five series concentrations (0.01, 0.1, 1, 10, and 100 μM) of synthetic retinoids (EC19 and EC23) and ATRA (standard retinoid positive control) in triplicate. These concentrations were prepared by diluting the stock solutions with serum-free culture media. The negative control cells were those treated with 0.1% DMSO solvent alone. The treated cells were handled in reduced light and maintained under standard culture growth conditions for 24 h. After the incubation period, MTT powder was prepared as a stock solution (5 mg/mL) and 20 μL of the MTT working reagent (final concentration 0.5 mg/mL) was added to each well. This was followed by incubation with MTT reagent for 4 h in a humidified atmosphere (37 °C, 5% CO2) with subsequent addition of 150 μL of DMSO solubilizing solvent and incubation for 20 min. The absorbance of solubilized violet formazan crystals was measured at 540 nm with Biotek 800 TS microplate reader. IC50 was calculated as the concentration of retinoid that produced 50% cell growth inhibition. […]

[2] = test system: A549; experiment: MTT antiproliferation assay; conditions: SI = IC50 (WI-38)/IC50 (cancer cell line)
Protocol: (§1) The antiproliferation and cytotoxicity were assessed using 3-(4,5-dimethylthiazol-2-yl)-2,5-diphenyltetrazolium bromide (MTT, Serva) colorimetric assay. To investigate the antiproliferation, all cell lines were seeded at a density of 20,000 cells per well in 96-well plates and allowed to adhere overnight. The attached cells were treated with five series concentrations (0.01, 0.1, 1, 10, and 100 μM) of synthetic retinoids (EC19 and EC23) and ATRA (standard retinoid positive control) in triplicate. These concentrations were prepared by diluting the stock solutions with serum-free culture media. The negative control cells were those treated with 0.1% DMSO solvent alone. The treated cells were handled in reduced light and maintained under standard culture growth conditions for 24 h. After the incubation period, MTT powder was prepared as a stock solution (5 mg/mL) and 20 μL of the MTT working reagent (final concentration 0.5 mg/mL) was added to each well. This was followed by incubation with MTT reagent for 4 h in a humidified atmosphere (37 °C, 5% CO2) with subsequent addition of 150 μL of DMSO solubilizing solvent and incubation for 20 min. The absorbance of solubilized violet formazan crystals was measured at 540 nm with Biotek 800 TS microplate reader. IC50 was calculated as the concentration of retinoid that produced 50% cell growth inhibition. For cytotoxicity assessment, WI-38 normal human fibroblast cells were used for the calculation of SI which is the ratio of IC50 retinoid (WI-38)/IC50 retinoid (cancer cell line).

[3] = test system: Caco-2; experiment: MTT antiproliferation assay; conditions: SI = IC50 (WI-38)/IC50 (cancer cell line)
Protocol: as §1

[4] = test system: DU-145; experiment: MTT antiproliferation assay; conditions: SI = IC50 (WI-38)/IC50 (cancer cell line)
Protocol: as §1

[5] = test system: HCT-116; experiment: MTT antiproliferation assay; conditions: SI = IC50 (WI-38)/IC50 (cancer cell line)
Protocol: as §1

[6] = test system: HT-29; experiment: MTT antiproliferation assay; conditions: SI = IC50 (WI-38)/IC50 (cancer cell line)
Protocol: as §1

[7] = test system: HepG2; experiment: MTT antiproliferation assay; conditions: SI = IC50 (WI-38)/IC50 (cancer cell line)
Protocol: as §1

[8] = test system: Huh7; experiment: MTT antiproliferation assay; conditions: SI = IC50 (WI-38)/IC50 (cancer cell line)
Protocol: as §1

[9] = test system: MDA-MB 231; experiment: MTT antiproliferation assay; conditions: SI = IC50 (WI-38)/IC50 (cancer cell line)
Protocol: as §1

[10] = test system: PC3; experiment: MTT antiproliferation assay; conditions: SI = IC50 (WI-38)/IC50 (cancer cell line)
Protocol: as §1

[11] = test system: Caco-2 cells; experiment: Isobologram analysis of retinoid + 5-FU combinations (MTT); conditions: Caco-2, combination with 5-FU
From the text: This mathematical model allows the determination of CI (combination index) values based on the Equation (1):CI = d1/D1 + d2/D2 (1) where d1 and d2 are the doses of drug 1 and drug 2 that, when given in combination, produce a specific response. D1 and D2 are the doses of drug 1 and drug 2, that, when given individually, produce the same response. Also, CI < 1 is synergy, CI = 1 is additivity and CI > 1 is antagonism
DRI < 1 indicates unfavorable dose reduction and ineffective combination.

[12] = test system: Caco-2 cells; experiment: Annexin V-FITC/PI apoptosis assay (flow cytometry); conditions: Caco-2, IC50 concentration, 12 h treatment
Protocol: The ability of synthetic retinoids to induce apoptosis in one of the sensitive cancer cell lines (namely, Caco-2 cells) was detected by Annexin V-FITC and PI according to the protocol of the detection kit (Beckman Coulter, Brea, CA, USA). […] Cells were collected, washed with phosphate-buffered saline (PBS) (Lonza), and resuspended in 1 mL of binding buffer. 100 µL cell suspension was incubated with 1 µL FITC-labeled Annexin V and 5 µL PI for 15 min at 4 °C in the dark. Finally, 400 µL ice-cold binding buffer was added, and the apoptotic cells in each sample were analyzed by Beckman Coulter Epics XL flow cytometer. Apoptotic index (AI) was calculated as the number of apoptotic cell deaths expressed as a percentage from the total gated cells.

[13] = test system: Bax; experiment: Gene expression analysis (qPCR) in Caco-2 cells; conditions: Caco-2, IC50, 24 h, relative to 0.1% DMSO control
Protocol: (§2) Sensitive cancer cell line (Caco-2) was used for gene expression analysis of different genes controlling differentiation, apoptosis, tumor resistance, aggressiveness, and metastasis. […] After incubation, cells were harvested, and the total RNA was purified using Favor-Prep^TM Blood/Cultured cell total RNA purification mini kit (Favorgen Biotech Corp., Ping-Tung, Taiwan). RNA was reverse transcribed into the first-strand cDNA using Revert Aid First Strand cDNA Synthesis Kit (Thermo Scientific, Waltham, MA, USA). HERA^PLUS SYBR® Green qPCR Kit (Willowfort, Nottingham, UK) was utilized in quantitative polymerase chain reactions (qPCR). Gene expression was analyzed and quantified using the 2ˆ^−ΔΔCT method.

[14] = test system: Caspase-3 (Cas-3); experiment: Gene expression analysis (qPCR) in Caco-2 cells; conditions: Caco-2, IC50, 24 h, relative to 0.1% DMSO control
Protocol: as §2

[15] = test system: Caspase-8 (Cas-8); experiment: Gene expression analysis (qPCR) in Caco-2 cells; conditions: Caco-2, IC50, 24 h, relative to 0.1% DMSO control
Protocol: as §2

[16] = test system: E-cadherin; experiment: Gene expression analysis (qPCR) in Caco-2 cells; conditions: Caco-2, IC50, 24 h, relative to 0.1% DMSO control
Protocol: as §2

[17] = test system: RAI2; experiment: Gene expression analysis (qPCR) in Caco-2 cells; conditions: Caco-2, IC50, 24 h, relative to 0.1% DMSO control
Protocol: as §2

[18] = test system: RAR-α; experiment: Gene expression analysis (qPCR) in Caco-2 cells; conditions: Caco-2, IC50, 24 h, relative to 0.1% DMSO control, normalized to GAPDH
Protocol: as §2

[19] = test system: RAR-β; experiment: Gene expression analysis (qPCR) in Caco-2 cells; conditions: Caco-2, IC50, 24 h, relative to 0.1% DMSO control, normalized to GAPDH
Protocol: as §2

[20] = test system: RAR-γ; experiment: Gene expression analysis (qPCR) in Caco-2 cells; conditions: Caco-2, IC50, 24 h, relative to 0.1% DMSO control, normalized to GAPDH
Protocol: as §2

[21] = test system: WRN; experiment: Gene expression analysis (qPCR) in Caco-2 cells; conditions: Caco-2, IC50, 24 h, relative to 0.1% DMSO control
Protocol: as §2

[22] = test system: cytochrome-C (Cyt-C); experiment: Gene expression analysis (qPCR) in Caco-2 cells; conditions: Caco-2, IC50, 24 h, relative to 0.1% DMSO control
Protocol: as §2

[23] = test system: p53; experiment: Gene expression analysis (qPCR) in Caco-2 cells; conditions: Caco-2, IC50, 24 h, relative to 0.1% DMSO control
Protocol: as §2

CC1=C(/C=C/C(C)=C/C=C/C(C)=C/C(=O)O)C(C)(C)CCC1 [ATRA, All-trans retinoic acid, reference compound]
SI (selectivity index) [1]: 1
SI (selectivity index) [2]: 0.4 ± 0.01
SI (selectivity index) [3]: 0.59 ± 0.01
SI (selectivity index) [4]: <1
SI (selectivity index) [5]: <1
SI (selectivity index) [6]: >1
SI (selectivity index) [7]: 0.94 ± 0.02
SI (selectivity index) [8]: <1
SI (selectivity index) [9]: <1
SI (selectivity index) [10]: <1
DRI (dose reduction index) [11]: 6.9 ± 0.7
CI (combination index) ([11]; CI < 1 is synergy): 0.29 ± 0.03
% Apoptotic index (AI) [12]: 12%
Bax gene expression, fold change [13]: 1.6 fold
Cas-3 gene expression, fold change [14]: 1.5 fold
Cas-8 gene expression, fold change [15]: 1.2 fold
E-cadherin gene expression, fold change [16]: did not show any significant increase
RAI2 gene expression, fold change [17]: 41.6 fold
RAR-α gene expression, fold increase [18]: no significant effect
RAR-β gene expression, fold increase [19]: 35 fold
RAR-γ gene expression, fold increase [20]: 2.5 fold
WRN gene expression, fold change [21]: 20 fold
Cyt-C gene expression, fold change [22]: 7.7 fold
p53 gene expression, fold change [23]: 1.2 fold
